Results as given in patent publication US20070179113A1, “GM-CSF gene therapy for Crohn's disease using an improved regulated expression system” (Schering Aktiengesellachaft, priority 2005, published 2007).

Key:
[1] = Pharmacokinetic study of bolus hIFN-β1a protein, serum hIFN-β ELISA
[2] = mice, rats and monkeys; cited from earlier work

Substance	amount of hIFN-β1a remaining in serum at 6 hours, i.m. vs i.v. ([1]; 6 hours)	decrease of serum level from maximum by 6 hours ([1]; i.m. injection)	time of maximum hIFN-β1a serum level post-injection ([1]; i.m. injection) [h]	difference in serum hIFN-β1a level between high and low dose ([1]; i.v. and i.m., 250 ng vs 25 ng) [fold]	time by which serum hIFN-β1a levels were near the limit of detection (LOD=12.5 pg/ml) ([1]; i.v. injection, 25 ng or 250 ng) [h]	half-life (t1/2) [2]
hIFN-β1a: recombinant human interferon-β1a protein	higher with the i.m. injection compared to the i.v. injection	approximately 10 fold	2	10	≤ 6	approximately 1 hours
PEGylated form of IFN-β1a: IFN-β1a with an attached 20-kDa polymer of polyethylene glycol [reference compound]						10 h
